Sampled rows, rich in hits. Any-hit rate of the full collection: about 3.7%.
A549 viability: counter-screen for Nrf2 inhibitors: cytotoxicity in A549 cells. A549 ARE-Fluc cells, CellTiter-Fluor viability, 18-24 h. Potency, µM (highest dose often 46 µM), inactives show at the highest dose activity change, negative = cytotoxicity, usual class: inhibitors. 390,000 compounds, 0.16% hits. AID 504648; also: potency is read from the fitted curve at half-maximal effect; % is scaled to controls: 0 for no effect and ±100 for the full control effect
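A549 ARE-Fluc cells in 5% FBS OPTI-MEM, 5000 cells/well, rested 2 h then exposed to compounds in concentration-response for 18-24 h at 37 °C. Viability by CellTiter-Fluor fluorescence (Ex 405/Em 525) after 30 min; luciferase luminescence (BugLite, 15 min, RT) read afterwards.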
ClpP mod: qHTS Assay for Activators of ClpP; AID 651965, 2013; 340,000 compounds, 1.9% hits; ATP-dependent Clp protease proteolytic subunit (Bacillus subtilis (strain 168)), P80244; purified B. subtilis ClpP, FRET peptide cleavage, 20 min; Potency, µM (top dose mostly 57.5 µM), without a hit: top-dose activity change, negative = active; active = well fitted falling curve with a large enough effect; inconclusive = small, poorly fitted or top-dose-only effect; inactive = no such curve, though single readings can be large or run the other way; also: potency is read from the fitted curve at half-maximal effect; the source files actives as falling curves though it sought activators and does not explain the sign; nearly all actives have a fitted effect of over 65% in size
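ClpP 10 microg/mL final, pH 8 Tris/KCl buffer with BSA, glycerol, Tween-20; compound pinned in; FRET-FV substrate; RT 20 min; Ex320/Em430; ΔFRET vs ADEP 5.8 microM, DMSO, no enzyme.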
miR-21 reporter: raises the signal of a miR-21 reporter; AID 2288; 340,000 tested, under 10 active; Potency, µM (doses to about 38.3 µM), inactives show at the top dose reporter change, positive = more light; HeLa miR-21 FLuc reporter, luciferase, 48 h; active = well fitted rising curve with a large enough effect; inconclusive = small, poorly fitted or top-dose-only effect; inactive = no such curve, though single readings can be large or run the other way;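 note: % of control where 0% means no effect; miR-21 action dims this reporter so a rising signal means less miR-21 action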
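Using DMEM plus 10% FBS, HeLa miR-21-FLuc cells are incubated with test compounds (final up to about 40uM) for 48 hours; firefly luciferase signal is then imaged following reagent-mediated lysis.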
Nrf2 activator: activators of Nrf2 (ARE) signaling | AREc32 ARE-luciferase reporter (MCF7-derived line), luminescence, 24 h | Potency, µM (titrated, usually from 46.1 µM), inactives show top-dose activation, usual class: activators | 410,000 compounds, 0.31% hits | AID 624171; also: potency is read from the fitted curve at half-maximal effect; % of control where 0% means no effect; nearly all actives have a fitted effect of over 65% in size
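AREc32 cells carrying an ARE-driven firefly luciferase, 1000 cells/well in OPTI-MEM with 5% FBS, dosed after overnight attachment and incubated 24 hr at 37 deg C. Steady-Glo luminescence read after 30 min at RT.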
p53 reactivator: re-activators of mutant p53; H1299 p53-A138V BP100-luciferase reporter, luminescence, 24 h; AID 504706; Potency, µM (titrated, usually from 92.2 µM), inactives show at the highest dose activity change, positive = activation, usual class: activators; 320,000 compounds, 0.063% hits; also: potency is read from the fitted curve at half-maximal effect; % of control where 0% means no effect; nearly all actives have a fitted effect of over 45% in size
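H1299 (p53-null), stable ts p53-A138V + BP100-Luc; 1000 cells/well, Opti-MEM/10% FBS; cpd 4 pt, 1:5; 24 h, 37 deg C, 5% CO2; detection reagent 10 min RT; luminescence.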
Nrf2 inh: Nrf2 pathway inhibition; AID 504444; Potency, µM (highest dose often 46 µM), for inactives: at the highest dose activity change, negative = inhibition, actives largely listed as inhibitors; 360,000 compounds, 2.1% hits; A549 ARE-Fluc reporter, luciferase luminescence, 18-24 h; also: potency is read from the fitted curve at half-maximal effect; % is scaled to controls: 0 for no effect and ±100 for the full control effect; nearly all actives have a fitted effect of over 60% in size
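A549 ARE_Fluc cells, 5000/well, 5% FBS OPTI-MEM; compounds in dose-response, 18-24 h at 37 °C/5% CO2; CellTiter-Fluor viability read (Ex 405/Em 525), then BugLite luciferase luminescence = Nrf2 activity.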
The depositor's hits bear a star. Unless noted, calls follow the shape of the dose curve; as a rule, active = well fitted curve in the direction sought with a large enough effect; inconclusive = small, poorly fitted or top-dose-only effect, or another doubt; inactive = no such curve, though single readings can be large; an effect the other way counts as inactive or inconclusive.

COc1ccc(C2c3[nH]c4ccc(OC)cc4c3CCN2C(=O)Nc2ccccc2)cc1 (stereo not given) was read as A549 viability inconclusive, ClpP mod -26.9%, miR-21 reporter inconclusive, Nrf2 activator -0.4% and Nrf2 inh 14.6µM*.
COc1ccccc1C(=O)Nc1ccccc1SCc1cc(=O)c2ccccc2[nH]1 was read as A549 viability -10.8%, ClpP mod 2.7%, miR-21 reporter -6.3% and Nrf2 activator 3.4%.
O=S1(=O)C=C(SCc2cccc(Cl)c2)Nc2ccccc21 was read as A549 viability 0.1%, ClpP mod 31.6µM*, miR-21 reporter 11.1%, Nrf2 activator -1.0%, p53 reactivator -1.9% and Nrf2 inh 20.6µM*.
For Cc1cccc(CSC2=CS(=O)(=O)c3ccccc3N2)c1 the results were A549 viability 0.2%, ClpP mod 1.4%, miR-21 reporter 7.1%, Nrf2 activator -0.1%, p53 reactivator 2.9% and Nrf2 inh inconclusive.
`COc1cccc(-c2c(-c3ccccc3OC)ncn2Cc2cccc(-c3ccccc3)c2)c1` gave ClpP mod 28.2µM*.
COc1cccc(Cn2cnc(-c3ccccc3OC)c2-c2ccco2)c1 was read as ClpP mod -17.8% and Nrf2 activator 7.7%.
Screening NCc1csc(Nc2ncccn2)n1 returned ClpP mod 2.5% and Nrf2 activator -0.1%.
For CCOC(=O)c1ccc(N2C(=O)c3[nH]nc(-c4ccccc4)c3C2c2ccc(CC)cc2)cc1 (stereo not given) the results were A549 viability inconclusive, ClpP mod -15.9%, miR-21 reporter inconclusive, Nrf2 activator -1.4% and Nrf2 inh 18.4µM*.
For CCOC(=O)c1ccc(N2C(=O)c3[nH]nc(-c4ccc(C)cc4)c3C2c2ccc(O)cc2)cc1 (stereo not given) the results were A549 viability -24.8%, ClpP mod 8.0%, miR-21 reporter inconclusive, Nrf2 activator -2.3% and Nrf2 inh 20.6µM*.
Screening CCOC(=O)c1ccc(N2C(=O)c3[nH]nc(-c4ccc(OC)cc4)c3C2c2cccc(O)c2)cc1 (stereo not given) returned A549 viability -28.4%, ClpP mod -7.4%, miR-21 reporter inconclusive, Nrf2 activator -4.1% and Nrf2 inh inconclusive.
Screening CCOc1ccc(N2C(=O)c3n[nH]c(-c4cccs4)c3C2c2cccc(F)c2)cc1 (stereo not given) returned A549 viability -22.1%, ClpP mod -11.8%, miR-21 reporter inconclusive, Nrf2 activator -2.8% and Nrf2 inh inconclusive.
For CCOC(=O)c1ccc(N2C(=O)c3[nH]nc(-c4ccc(C)cc4)c3C2c2cccc(F)c2)cc1 (stereo not given) the results were A549 viability -18.1%, ClpP mod -9.3%, miR-21 reporter inconclusive, Nrf2 activator -0.1% and Nrf2 inh 20.6µM*.
Screening CCOC(=O)c1ccc(N2C(=O)c3n[nH]c(-c4cccs4)c3C2c2cccc(OC)c2)cc1 (stereo not given) returned A549 viability inconclusive, ClpP mod -9.3%, miR-21 reporter inconclusive, Nrf2 activator -1.5% and Nrf2 inh 20.6µM*.
CCOC(=O)c1ccc(N2C(=O)c3n[nH]c(-c4ccco4)c3C2c2ccc(C)cc2)cc1 (stereo not given) was read as A549 viability -23.9%, ClpP mod -11.9%, miR-21 reporter inconclusive, Nrf2 activator -2.7% and Nrf2 inh inconclusive.
Screening N#Cc1nc(NCCCCO)nc(Nc2ccccc2)n1 returned A549 viability -15.0% and Nrf2 inh -28.1%.
O=C(CCNC(=O)C1CCN(S(=O)(=O)c2ccc(F)cc2)CC1)NCc1ccccn1 was read as ClpP mod -0.1% and Nrf2 activator -0.2%.

Two compounds drawn at random from those above:
Screening N#Cc1nc(NCCCCO)nc(Nc2ccccc2)n1 returned A549 viability -15.0% and Nrf2 inh -28.1%.
CCOC(=O)c1ccc(N2C(=O)c3n[nH]c(-c4ccco4)c3C2c2ccc(C)cc2)cc1 (stereo not given) was read as A549 viability -23.9%, ClpP mod -11.9%, miR-21 reporter inconclusive, Nrf2 activator -2.7% and Nrf2 inh inconclusive.
